Among the data in patent US20180297966A1, “COMPOUNDS, COMPOSITIONS, AND METHODS OF MAKING AND USING THE SAME” (INNOVATIVE ANESTHETICS, LLC, priority 2015, published 2018) are pH values, retold here.

“And” between values parts separate entries of the source, which are not always exact repeats. Equal values may be shown once.

This data set can be described thus: pH of exemplary salts with respect to concentration (% w/v). The format is physicochemical.

Consider `CCCNC(C)C(=O)Nc1c(C)csc1C(=O)OC.O=C1NS(=O)(=O)c2ccccc21` (centres unmarked) [Articaine saccharinate, Articaine Saccharinate], for which the pH is listed as 3.95. In the case of Articaine Acesulfamate, the pH was 3.50 and 3.79 and 3.95.
